B2AR arrestin = recruits beta-arrestin to the human beta2-adrenergic receptor | P07550 | beta-arrestin recruitment to beta2AR, cell-based reporter | Potency, µM (series often up to 46.1 µM), actives largely listed as activators | actives 0.02% (n = 330,000); note: nearly all actives have a fitted effect of over 65% in size
A549 viability = kills or reduces viability of A549 cells in Nrf2 counter-screen; A549 ARE-Fluc cells, CellTiter-Fluor viability, 18-24 h; Potency, µM (top dose mostly 46 µM), hits mostly inhibitors; actives 0.16% (n = 390,000)
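A549 ARE_Fluc cells in 5% FBS OPTI-MEM were exposed to compounds in concentration-response for 18-24 h at 37 deg C. Viability was read by CellTiter-Fluor fluorescence (Ex 405/Em 525) after 30 min, before the luciferase read.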
Nrf2 inh = blocks Nrf2 signaling; A549 ARE-Fluc reporter, luciferase luminescence, 18-24 h; Potency, µM (highest dose often 46 µM), usual class: inhibitors; actives 2.1% (n = 360,000); AID 504444; note: nearly all actives have a fitted effect of over 60% in size
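Two sequential reads on A549 ARE_Fluc cells exposed to compound for 18-24 h: a CellTiter-Fluor fluorescence read for viability, then a luciferase luminescence read for Nrf2/ARE activity.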
Nrf2 ARE act = Nrf2 pathway activation; AREc32 ARE-luciferase reporter (MCF7-derived line), luminescence, 24 h; Potency, µM (top dose mostly 46.1 µM), actives largely listed as activators; actives 0.31% (n = 410,000); note: nearly all actives have a fitted effect of over 65% in size
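Cells of the AREc32 ARE-luciferase line are plated in OPTI-MEM containing 5% FBS and left overnight at 37 deg C. Compounds are pinned in, incubation continues 24 hr, and firefly luciferase signal is then measured.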
miR-21 reporter = raises the signal of a miR-21 reporter; Potency, µM (doses to about 38.3 µM); HeLa miR-21 FLuc reporter, luciferase, 48 h; AID 2288; 340,000 tested, under 10 active; active = well fitted rising curve with a large enough effect; inconclusive = small, poorly fitted or top-dose-only effect; inactive = no such curve, though single readings can be large or run the other way;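 further: miR-21 action dims this reporter so a rising signal means less miR-21 action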
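HeLa cells stably expressing CMV-driven firefly luciferase with a downstream miR-21 binding sequence, endogenously expressing miR-21, were treated with titrations (up to about 40uM final) for 48 hours at 37 degree Celsius. Luciferase luminescence was read after lysis.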
Numbers stand for hits. Only some compounds are listed: those with a hit (about 2.2% of all), similar ones and a draw of the others. Unless noted, calls come from the whole dose curve; as a rule, active = well fitted curve in the direction sought with a large enough effect; inconclusive = small, poorly fitted or top-dose-only effect, or another doubt; inactive = no such curve, though single readings can be large; an effect the other way counts as inactive or inconclusive.

Results for c1ccc(-c2nnc(-c3c[nH]c4ccccc34)nc2-c2ccccc2)cc1 ?
B2AR arrestin: inactive; A549 viability: inactive; Nrf2 inh: inconclusive; Nrf2 ARE act: inactive; miR-21 reporter: inactive

What do the screens show for `N#C/C(=C\c1ccc(N2CCOCC2)o1)c1nc2ccccc2[nH]1`?
B2AR arrestin: inactive; A549 viability: inconclusive; Nrf2 inh: inconclusive; Nrf2 ARE act: inactive; miR-21 reporter: inactive

How did N#C/C(=C/c1ccc(N2CCOCC2)o1)c1ccc(Cl)cc1 do in these assays?
B2AR arrestin: inactive; A549 viability: inconclusive; Nrf2 inh: inconclusive; Nrf2 ARE act: 13µM; miR-21 reporter: inactive

How did CCOc1cc(C2c3c(-c4cc(C)ccc4O)n[nH]c3C(=O)N2CCCOC(C)C)ccc1O (stereo unspecified) do in these assays?
A549 viability: inactive; Nrf2 inh: inactive; Nrf2 ARE act: inactive; miR-21 reporter: inactive

What do the screens show for `COc1ccc(S(=O)(=O)Nc2ccc(C)cc2)cc1N(C)S(=O)(=O)c1ccc(Cl)cc1`?
B2AR arrestin: inactive; A549 viability: inconclusive; Nrf2 inh: 18µM; Nrf2 ARE act: inactive; miR-21 reporter: inconclusive

How did COc1ccc(S(=O)(=O)N2CCCCCC2)cc1N(C)S(=O)(=O)c1ccccc1 do in these assays?
B2AR arrestin: inactive; A549 viability: inactive; Nrf2 inh: 23µM; Nrf2 ARE act: inactive; miR-21 reporter: inactive

Results for c1nc(NCc2ccc3c(c2)OCO3)c2[nH]cnc2n1 ?
A549 viability: inactive; Nrf2 inh: inactive

Results for CCOc1ccc(CCN2C(=S)N([C@@H](Cc3ccc(O)cc3)CN3CCCC3CN3C(=S)NC[C@@H]3Cc3ccc(O)cc3)C[C@@H]2CC(C)C)cc1 (stereo partly specified) ?
A549 viability: inactive; Nrf2 inh: 16µM; Nrf2 ARE act: inactive

What do the screens show for `CCOc1ccc(CCN2C(=S)N([C@@H](Cc3ccccc3)CN3CCC[C@@H]3CN3C(=S)NC[C@@H]3Cc3ccc(O)cc3)C[C@@H]2CC(C)C)cc1`?
Nrf2 ARE act: inactive

What do the screens show for `C[C@H](NC(=O)OC(C)(C)C)c1nnc(SCc2ccc(Cl)cc2Cl)o1`?
A549 viability: inactive; Nrf2 inh: inconclusive; Nrf2 ARE act: inactive; miR-21 reporter: inactive

What do the screens show for `Cc1ccc(-n2nc(C(=O)N(C)c3ccccc3Cl)c3c4ccccc4n(C)c3c2=O)cc1`?
A549 viability: inactive; Nrf2 inh: inactive; Nrf2 ARE act: inactive; miR-21 reporter: inactive

How did CCOC(=O)C1=C(CN2CCN(c3ccccc3F)CC2)NC(=O)NC1c1ccc(Cl)cc1 (stereo unspecified) do in these assays?
A549 viability: inactive; Nrf2 inh: 21µM; Nrf2 ARE act: inactive; miR-21 reporter: inactive

What do the screens show for `CCOC(=O)C1=C(CN2CCN(c3ccccc3F)CC2)NC(=O)NC1c1ccc(OC)cc1` (stereo unspecified)?
A549 viability: inactive; Nrf2 inh: 18µM; Nrf2 ARE act: inactive; miR-21 reporter: inactive

What do the screens show for `CCOC(=O)C1=C(CN(CC)Cc2ccccc2)NC(=O)NC1c1ccc(OC(C)C)cc1` (stereo unspecified)?
A549 viability: inconclusive; Nrf2 inh: 18µM; Nrf2 ARE act: inactive; miR-21 reporter: inconclusive

Results for CCOC(=O)C1=C(CN2CCC(C)CC2)NC(=O)NC1c1ccc(OC(C)C)cc1 (stereo unspecified) ?
A549 viability: inactive; Nrf2 inh: inconclusive; Nrf2 ARE act: inactive; miR-21 reporter: inactive

How did Cc1cccc(CNC(=O)C2CCN(c3nc4ccc(Cl)cc4[nH]3)CC2)c1 do in these assays?
A549 viability: inactive; Nrf2 ARE act: inactive; miR-21 reporter: inactive

How did COc1ccccc1C1=Nn2c(nnc2-c2cccc(OC)c2OC)SC1 do in these assays?
A549 viability: inactive; Nrf2 inh: inactive
